Reference: US9303023B2, “Pyrazole and imidazole derivatives useful as orexin antagonists” (ACTELION PHARMACEUTICALS LTD., priority 2011, dated 2016)

Chains of the proteins cited; added tags and fusions are not shown.
UniProt O43614, whole entry: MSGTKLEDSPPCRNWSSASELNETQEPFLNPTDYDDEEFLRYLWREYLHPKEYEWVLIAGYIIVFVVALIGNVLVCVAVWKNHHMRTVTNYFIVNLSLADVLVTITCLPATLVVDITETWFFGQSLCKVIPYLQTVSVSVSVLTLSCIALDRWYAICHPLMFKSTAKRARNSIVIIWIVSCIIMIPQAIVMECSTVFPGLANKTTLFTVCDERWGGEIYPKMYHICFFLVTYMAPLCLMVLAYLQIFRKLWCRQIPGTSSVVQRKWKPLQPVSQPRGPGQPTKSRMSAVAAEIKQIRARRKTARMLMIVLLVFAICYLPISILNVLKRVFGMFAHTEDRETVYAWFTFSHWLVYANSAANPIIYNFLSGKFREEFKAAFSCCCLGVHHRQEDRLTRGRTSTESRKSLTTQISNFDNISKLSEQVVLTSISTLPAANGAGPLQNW

Biological target: human orexin-2 receptor (Homo sapiens (Human), UniProt O43614)
Test: In vitro intracellular calcium measurements (FLIPR), antagonism of orexin-A response, OX2
Format: cell-based
Details: CHO cells expressing human orexin-2 receptor; 3 nM orexin-A; compound incubation time 120 min

IC50: 368 nM
SMILES: Cc1cccc(-c2ocnc2C(=O)Nc2cnn(CCN3CCc4ccccc43)c2)c1 [Example 16, 5-m-Tolyl-oxazole-4-carboxylic acid {1-[2-(2,3-dihydro-indol-1-yl)-ethyl]-1H-pyrazol-4-yl}-amide]
